Legend:
[1] = test system: H3255 cells (EGFR L858R NSCLC); settings: parental cells, low nanomolar concentrations; cited from earlier work
[2] = test system: PC9 cells (EGFR delE746-A750 NSCLC); settings: parental cells, low nanomolar concentrations; cited from earlier work
[3] = test system: H3255 cells (EGFR L858R NSCLC); assay: Long-term colony formation / cell proliferation assay in H3255 cells; type: cell-based, human
Description: (§1) Single cell suspensions of the lung cancer cell lines were seeded into 6-well plates (2×10^4 cells/well) and cultured both in the absence and presence of the ALK inhibitors. At the endpoints of colony formation assays, cells were fixed with formaldehyde, stained with crystal violet (0.1% w/v) and photographed. All relevant assays were performed independently at least three times. All knockdown and overexpression experiments were done by retroviral or lentiviral infections.
(§2) Cells were seeded into 6-well plates (2-5×10^4 cells/well) and cultured both in the absence and presence of drugs as indicated. […] All knockdown and overexpression experiments were done by retroviral or lentiviral infection. All relevant assays were performed independently at least three times.

[4] = test system: PC9 cells (EGFR delE746-A750 NSCLC); assay: Long-term colony formation / cell proliferation assay in PC9 cells; type: cell-based, human
Description: as §1, §2

## COc1cc2ncnc(Nc3ccc(F)c(Cl)c3)c2cc1OCCCN1CCOCC1 [gefitinib]
[1]
  sensitivity of H3255 cells: exquisitely sensitive
[2]
  sensitivity of PC9 cells: exquisitely sensitive
[3]; pRS and shGFP control cells
  drug response of control H3255 cells: effectively eradicated
[3]; shMED12
  drug response of MED12 knockdown H3255 cells: insensitive
[4]; shARID1A #1 and #2
  drug response of ARID1A knockdown PC9 cells: conferred resistance
[4]; shDAB2IP#1 and #3, 50 nM
  drug response of DAB2IP knockdown PC9 cells: conferred resistance
[4]; shMED12
  drug response of MED12 knockdown PC9 cells: insensitive
[4]; shMED12 plus pMX-Med12, 50 nM gefitinib
  drug response of MED12 knockdown PC9 cells reconstituted with mouse Med12 cDNA: restored their sensitivity
[4]; shNF1#2 and #5, 50 nM
  drug response of NF1 knockdown PC9 cells: conferred resistance
[4]; shSMARCE1#1 and #2
  drug response of SMARCE1 knockdown PC9 cells: conferred resistance
[4]; shSMARCE1 plus SMARCE1-ND
  drug response of SMARCE1 knockdown PC9 cells reconstituted with SMARCE1-ND: restored the sensitivity

— patent US20140296248A1, “METHODS AND COMPOSITIONS FOR PREDICTING RESISTANCE TO ANTICANCER TREATMENT” (Stichting het Nederlands Kanker Instiuut-Antoni van …, priority 2011, published 2014)
